Measured values as given in patent publication US11193004B2, “Phosphoric ester preparations with reduced hygroscopicity” (LANXESS Deutschland GmbH, priority 2013, dated 2021).

Assay: physchem
Conditions: 25 °C, water

SMILES: CC(C)COP(=O)(OCC(C)C)OCC(C)C [TiBP, Triisobutyl phosphate]
- solubility: 270 µg/mL
